Data published in paper PMC6748826.
“And” between values parts separate entries of the source, which are not always exact repeats. Identical values can stand only once.

Experiments:
[1] = target: heavy meromyosin (HMM) construct of human β-cardiac myosin (MYH7) with bound light chains (human | mouse (endogenous in C2C12)) (UniProt P12883); experiment: optical trap (three-bead geometry, ultra-fast force clamp); as a1 but 1 mM MgATP, no added Pi
[2] = target: heavy meromyosin (HMM) construct of human β-cardiac myosin (MYH7) with bound light chains (human | mouse (endogenous in C2C12)) (UniProt P12883); experiment: optical trap (three-bead geometry, ultra-fast force clamp); as a1 but 10 mM free Pi, 1 μM MgATP; ionic strength held constant
[3] = target: heavy meromyosin (HMM) construct of human β-cardiac myosin (MYH7) with bound light chains (human | mouse (endogenous in C2C12)) (UniProt P12883); experiment: optical trap (three-bead geometry, ultra-fast force clamp); single myosin HMM attached non-specifically to nitrocellulose-coated silica pedestal beads; bead-actin-bead dumbbell; 1.5–4.5 pN assisting or hindering load; 1 μM MgATP, no added Pi; 60 mM MOPS, 10 mM DTT, 1 mM EGTA, 1 mM MgCl2, 1 mg/mL BSA; attachment durations fitted with two or three …

“actin from rabbit skeletal muscle (from UniProt P68135 1-377) (natural protein)” was tested, and the k0 of ks (unloaded slow detachment rate, Bell equation fit, 1 mM MgATP) [1] was 31.5 s⁻¹, the fold decrease of ks at 10 mM Pi against no added Pi [2] was 2 fold and the k0 of kf (unloaded fast detachment rate, Bell equation fit, assisting loads) [3] was 579 s⁻¹. The k0 of kf (unloaded fast detachment rate, Bell equation fit, hindering loads) [3] was 354 s⁻¹, the k0 of kint (unloaded intermediate detachment rate, Bell equation fit) [3] was 256 s⁻¹ and the kf (fastest detachment rate of the multi-exponential fit, increasing hindering or assisting forces) [3] was 3000 s⁻¹ and 6000 s⁻¹. The kf (fastest detachment rate of the multi-exponential fit, low loads) [3] was 1000 s⁻¹.
